Like-named read-outs stand apart in the source and are kept apart here.
Assay: Plasma and brain concentrations in 6 Hz studies (LC-MS/MS)
Type: in vivo, mouse
Settings: Levetiracetam 300 mg/kg IP 1 h alone
Description: Sample Collection and Preparation: Mice were anesthetized by isoflurane inhalation (TECH-018) until they reached a surgical plane of anesthesia. Then a syringe (1 mL syringe with a 22 gauge needle) was inserted under the sternum into the heart (TECH-031). Approximately 0.5 mL of blood was collected, deposited into a K2EDTA tube, and stored on ice. Animals were then euthanized by cervical dislocation (TECH-018). Brains were removed, placed into a pre-weighed vial, and snap frozen on dry ice. At the end of the sample collection, blood was centrifuged at 4000 rpm for 10 minutes at 4° C., and the plasma pipetted into a labeled tube. All samples were stored in a −80° C. freezer until bioanalysis (8 days after sample collection for Studies 3A and 3B; 20 days after sample collection for Study 3C).
Plasma and Tissue Sample Analysis: Bead mill polypropylene tubes containing weighed brain tissues were thawed at room temperature and 3 mL of homogenization solvent (water:acetonitrile (1:1, v:v)) was added. The tubes were placed in the Bead Mill Homogenizer (Bead Ruptor Elite Model, Omni International) and shaken at a velocity of 3.70 m/s for a single cycle lasting 30 seconds. The homogenized tube was centrifuged at 4000 rpm for 20 minutes, the supernatant was transferred to a 1.5 mL Eppendorf tube, and stored frozen at −80° C. until analysis. All samples including plasma and brain homogenate extracts (including calibration and quality control (QC) samples prepared in K2EDTA rat plasma), were extracted by protein precipitation. […] The samples in the 1.5 mL tubes were vortex mixed and then centrifuged for 20 minutes at 13,000 rpm. Fifty microliters of the supernatant was mixed with 150 μL of water/acetonitrile (1:1) in a 96 well plate which was centrifuged post mixing for 20 minutes at 4000 rpm, and was then ready for analysis by liquid chromatography tandem mass spectrometry (LC-MS/MS).
Samples were analyzed by a research-grade LC-MS/MS method as follows: […]

Q: With `CC[C@@H](C(N)=O)N1CCCC1=O` [Levetiracetam, reference compound] as the molecule, how does the concentration at 1 h (CF-1, mouse, brain, intraperitoneal, 300 mg/kg, Study 3C, read-out: Brain) read?
A: 1130 ± 130 µM

Q: And the concentration at 1 h (CF-1, mouse, plasma, intraperitoneal, 300 mg/kg, Study 3C, read-out: Plasma)?
A: 1770 ± 287 µM

Q: And the Plasma (Study 3B, listed as Lev)?
A: 1500 µM

Q: What about the concentration at 1 h (Study 3B, listed as Lev, read-out: Brain) of the same molecule?
A: 861 µM

Q: And the Plasma (Study 3C, listed as Lev)?
A: 1770 µM

Q: And the concentration at 1 h (Study 3C, listed as Lev, read-out: Brain)?
A: 1130 µM

Q: And the concentration at 1 h (mouse, brain, intraperitoneal, 300 mg/kg, Study 3C, read-out: Brain)?
A: 1130 µM

Q: And the concentration at 1 h (mouse, plasma, intraperitoneal, 300 mg/kg, Study 3C, read-out: Plasma)?
A: 1770 ± 287 µM

— patent US20220288057A1, “CONJOINT THERAPY FOR TREATING SEIZURE DISORDERS” (XENON PHARMACEUTICALS INC., priority 2021, published 2022)
